{
  "source": "patent EP0325571B1",
  "about": "“New amines, their use and preparation” (priority 1988, dated 1989)",
  "tested_on": "mice",
  "experiment": "Acute toxicity in mice, i.v. bolus",
  "type": "in vivo",
  "conditions": "LD50-interval: between highest dose where 4 mice survived and lowest dose where 4 mice died within 5 minutes after i.v. bolus",
  "experimental": "d) Acute toxicity in mice\nThe antagonists to be tested were dissolved in 0.9% NaCI. If they were not soluble in 0.9% NaCI they were dissolved in double distilled water. The solutions were prepared on the day of the experiment.\nWhite male mice, 25 g, were placed in a mouse holder. The tested compounds were given as i.v. bolus doses in one of the four tail-veins, with a volume of 0.01 ml/g mouse. Each substance concentration was given to a group of four mice. 4-5 different concentrations of the antagonists were made and tested.\nLDso-interval : The LD50-interval was between the highest dose where 4 mice survived and the lowest dose where 4 mice died within 5 minutes after an i.v. bolus dose.",
  "data": [
    {"smiles": "Cc1ccc(O)c(C(CCN(C(C)C)C(C)C)c2ccccc2)c1.O=C(O)C(O)C(O)C(=O)O", "note": "(single isomer, unassigned) [Compound 4b, (-)-N,N-Diisopropyl-3-(2-hydroxy-5-methylphenyl)-3-phenylpropylamine hydrogen D(-)-tartrate]", "values": [
      {"measurement": "Acute toxicity i.v.", "result": "10 to 20", "unit": "mg/kg"}
    ]}
  ]
}
